Target: P2X7 (Homo sapiens (Human), UniProt Q99572)
Assay: Ca2+ flux (FLIPR) in 1321N1 cells expressing recombinant human P2X7 channel;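 also: Calcium-4 dye-loaded cells exposed to compound for 30 min before agonist addition, fluorescence change read 180 s after agonist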
Format: cell-based
Details: 250 μM BzATP

By UniProt entry, the sequences of proteins in these tests, tags left out. Where a name states a change or a piece, a line headed by the entry shows the natural chain unless it says otherwise.
UniProt Q99572: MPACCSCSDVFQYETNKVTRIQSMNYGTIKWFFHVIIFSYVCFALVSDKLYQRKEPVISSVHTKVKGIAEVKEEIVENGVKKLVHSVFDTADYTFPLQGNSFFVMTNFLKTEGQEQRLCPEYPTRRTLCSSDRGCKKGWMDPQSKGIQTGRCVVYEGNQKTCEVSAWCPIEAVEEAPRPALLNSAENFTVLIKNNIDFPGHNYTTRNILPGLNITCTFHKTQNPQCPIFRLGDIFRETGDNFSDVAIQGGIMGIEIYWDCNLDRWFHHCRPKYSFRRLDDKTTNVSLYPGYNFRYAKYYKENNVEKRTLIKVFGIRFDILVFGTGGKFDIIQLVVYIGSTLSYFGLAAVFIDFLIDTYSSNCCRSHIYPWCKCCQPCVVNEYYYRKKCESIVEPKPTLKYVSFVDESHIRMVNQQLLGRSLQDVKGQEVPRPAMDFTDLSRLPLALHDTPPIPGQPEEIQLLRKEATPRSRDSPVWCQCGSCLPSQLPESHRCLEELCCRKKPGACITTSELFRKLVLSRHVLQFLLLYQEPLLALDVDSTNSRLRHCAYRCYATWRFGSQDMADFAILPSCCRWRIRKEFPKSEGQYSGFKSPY

| SMILES | IC50 [µM] |
| --- | --- |
| C[C@H]1c2ncn(-c3ccccn3)c2CCN1C(=O)c1cccc(C(F)(F)F)c1F (single isomer, unassigned) [Example 43, (4 S*)-5-{[2-Fluoro-3-(trifluoromethyl)phenyl]carbonyl}-4-methyl-1-pyridin-2-yl-4,5,6,7-tetrahydro-1H-imidazo[4,5-c]pyridine] | 5.24 |
| C[C@@H]1c2ncn(-c3ccc(F)cc3)c2CCN1C(=O)c1cccc(C(F)(F)F)c1Cl (single isomer, unassigned) [Example 46, (4R*)-5-{[2-Chloro-3-(trifluoromethyl)phenyl]carbonyl}-1-(4-fluorophenyl)-4-methyl-4,5,6,7-tetrahydro-1H-imidazo[4,5-c]pyridine] | 0.0603 |
| C[C@H]1c2ncn(-c3ccc(F)cc3)c2CCN1C(=O)c1cccc(C(F)(F)F)c1Cl (single isomer, unassigned) [Example 47] | 0.149 |
| C[C@@H]1c2nnn(-c3ccn(CCF)n3)c2CCN1C(=O)c1cccc(C(F)(F)F)c1Cl (single isomer, unassigned) [Example 171, (R*)-(2-Chloro-3-(trifluoromethyl)phenyl)(1-(1-(2-fluoroethyl)-1H-pyrazol-3-yl)-4-methyl-6,7-dihydro-1H-[1,2,3]triazolo[4,5-c]pyridin-5(4H)-yl)methanone] | 2.03 |
| C[C@@H]1c2ncn(-c3ccccn3)c2CCN1C(=O)c1cccc(Cl)c1Cl (single isomer, unassigned) [Example 192, (R*)-(2,3-Dichlorophenyl)(4-methyl-1-(pyridin-2-yl)-6,7-dihydro-1H-imidazo[4,5-c]pyridin-5(4H)-yl)methanone] | 2.51 |
| Cc1c(C(=O)N2CCc3c(nnn3-c3ncccn3)[C@@H]2C)cccc1C(F)(F)F (single isomer, unassigned) [Example 197, (S*)-(4-methyl-1-(pyrimidin-2-yl)-6,7-dihydro-1H-[1,2,3]triazolo[4,5-c]pyridin-5(4H)-yl)(2-methyl-3-(trifluoromethyl)phenyl)methanone] | 0.662 |
| C[C@H]1Cc2c(nnn2-c2ncc(F)cn2)CN1C(=O)c1cc(C(F)(F)F)ccc1F (single isomer, unassigned) [Example 232, (S*)-(2-fluoro-5-(trifluoromethyl)phenyl)(1-(5-fluoropyrimidin-2-yl)-6-methyl-6,7-dihydro-1H-[1,2,3]triazolo[4,5-c]pyridin-5(4H)-yl)methanone] | 5.6 |
| Cc1nc(-n2nnc3c2CCN(C(=O)c2cccc(C(F)(F)F)c2Cl)C3C)ncc1F (single isomer, unassigned) [Example 306, (S*)-(2-chloro-3-(trifluoromethyl)phenyl)(1-(5-fluoro-4-methylpyrimidin-2-yl)-4-methyl-6,7-dihydro-1H-[1,2,3]triazolo[4,5-c]pyridin-5(4H)-yl)methanone] | 6.87 |
| C[C@H]1c2ncn(-c3ccc(F)cn3)c2CCN1C(=O)c1cccc(C(F)(F)F)c1Cl (stereo in doubt) [Example 41] | 1.61 |
| CC1c2ncn(-c3ccc(F)cc3)c2CCN1C(=O)c1cccc(C(F)(F)F)c1Cl (stereo not shown) [Example 18, (2-Chloro-3-(trifluoromethyl)phenyl)(1-(4-fluorophenyl)-4-methyl-6,7-dihydro-1H-imidazo[4,5-c]pyridin-5(4H)-yl)methanone] | 0.0773 |
| CC1(C)c2ncn(-c3ccccc3)c2CCN1C(=O)c1cccc(C(F)(F)F)c1Cl [Example 53, 5-{[2-Chloro-3-(trifluoromethyl)phenyl]carbonyl}-4,4-dimethyl-1-phenyl-4,5,6,7-tetrahydro-1H-imidazo[4,5-c]pyridine] | 0.975 |
| O=C(c1cccc(Cl)c1Cl)N1CCc2c(-c3ccncc3)n[nH]c2C1 [Example 115, 6-[(2,3-Dichlorophenyl)carbonyl]-3-pyridin-4-yl-4,5,6,7-tetrahydro-2H-pyrazolo[3,4-c]pyridine] | 1.07 |
| Cc1cc(C)nc(-n2nnc3c2CCN(C(=O)c2cccc(Cl)c2Cl)C3C)n1 (stereo not shown) [Example 179, (2,3-dichlorophenyl)(1-(4,6-dimethylpyrimidin-2-yl)-4-methyl-6,7-dihydro-1H-[1,2,3]triazolo[4,5-c]pyridin-5(4H)-yl)methanone] | 1.06 |

Reference: US9464084B2, “P2X7 modulators” (Janssen Pharmaceutica NV, priority 2013, dated 2016)
